Results reported in US20260048100A1.

Target: receptor of IL-15 on the target cell (Mo7e cells)
Test: cell-based or functional assay

EC50, Mo7e cell proliferation (CCK-8): 125 nM
Substance: LIC23 fusion protein after cleavage by MMP
